Ab-91 heavy chain CDR variants: yeast mating affinities

Source: Engelhart et al. 2022 (doi:10.1038/s41597-022-01779-4), MIT Lincoln Laboratory and A-Alpha Bio; data file from the FLAb repository.

Antigen: PDVDLGDISGINAS, a 14-residue peptide of the SARS-CoV-2 spike HR2 region.

Each scFv is VL, a (GGGGS)3 linker, VH, as in the parent Ab-91, and differs from it in the CDRs of the heavy chain only.
VL: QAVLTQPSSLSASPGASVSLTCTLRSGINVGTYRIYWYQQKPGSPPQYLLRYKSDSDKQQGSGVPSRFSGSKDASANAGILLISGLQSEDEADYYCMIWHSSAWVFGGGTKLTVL
VH: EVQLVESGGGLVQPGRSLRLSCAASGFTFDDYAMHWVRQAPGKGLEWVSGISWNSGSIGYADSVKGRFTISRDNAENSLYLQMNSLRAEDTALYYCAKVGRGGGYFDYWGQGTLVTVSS

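The library (AAYL51) carries one to three amino acid substitutions per variant, with no insertions or deletions. In AlphaSeq, yeast of one mating type display the scFv and yeast of the other type display the target. The frequency of each diploid, read from paired DNA barcodes, reflects how well the two displayed proteins bind. The ratio of observed to expected reads was calibrated, replicate by replicate, on BCL2-family standards whose Kd was known from biolayer interferometry. Mating was done three times.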

The parent's heavy chain CDRs are GFTFDDYAMH, GISWNSGSIGYADSVK, VGRGGGYFDY; each variant's own CDRs replace them letter for letter.
The read-out is the apparent dissociation constant on a log10 scale (nM): the lower, the stronger.
A mean of the replicates is given; it leaves out those without a signal.
Where no diploid with the target was found in any replicate, the entry reads "nd": below detection, most likely a poor binder, though not proof of it.
The list is sorted by this average, lowest first, undetected variants last.
Empty control strains, which show no peptide, gave a signal in 21% of pairings with library AAYL51; the median was 4.54 and 95% of these signals were weaker than 3.26. No background was subtracted. The control count says in how many pairings with the empty strains this scFv gave a signal.

| CDR-H1 | CDR-H2 | CDR-H3 | mean, log10 nM | seen in | empty controls |
|---|---|---|---|---|---|
| GFTFDDYAMH | GISTNSGSIGYADSVG | VGRGGGSFDY | 0.94 | 3/3 | 2/9 |
| GFTFNWYAMH | GISWNAGSIGYADSVK | VGRGGGYFDY | 0.97 | 3/3 | 2/9 |
| GFTFDDYAMH | GIAWNSMSIGYEDSVK | VGRGGGYFDY | 1.86 | 3/3 | 4/9 |
| GFTFDYYAMH | GISWNSGSIGYADSVA | VGNGGGYFDY | 1.98 | 3/3 | 0/9 |
| GFTFDDYAMH | GISWNSGSIGYADSVK | VGRIGGYFWY | 2.17 | 3/3 | 2/9 |
| GFYYDDYAMH | GISWNSGSIGYADNVK | VGRGGGYFDY | 2.61 | 3/3 | 2/9 |
| GFTFDDYAMH | GISINSGSTGYADSVK | VGRMGGYFDY | 2.76 | 3/3 | 0/9 |
| GFTFDDYAMH | GHSWNSGSFGYADSVK | VGRGGGEFDY | 3.19 | 1/3 | 0/9 |
| GFTFDDYAMH | GFSWNWGSIGYADSVS | VGRGGGYFDY | 3.59 | 1/3 | 1/9 |
| GFTFDDYAIH | GISWNSGSIGYCDSVK | VGRGGGYFGY | 3.88 | 1/3 | 0/9 |
| GFTFDDYAMH | GISWNSGDIGFADSVK | VGRGHGYFDY | 3.95 | 2/3 | 3/9 |
| GFTFDDYIMH | PISWNSGSIGYADSVK | VGRKGGYFDY | 3.99 | 1/3 | 1/9 |
| GFTFHDYAMH | GISWNSGFIGYAFSVK | VGRGGGYFDY | 4.07 | 3/3 | 2/9 |
| GFTFDDYAMH | GIRWNSMSIGYADSVK | VGRGGGYFDY | 4.14 | 1/3 | 2/9 |
| GFTFDDYAMH | GISWQSGSIGYATSVK | VGRGGGYFDY | 4.16 | 1/3 | 2/9 |
| GFTFDDYLMK | GISWNSGSRGYADSVK | VGRGGGYFDY | 4.16 | 1/3 | 1/9 |
| GETFDDYAMH | GISYNSGSIGYADSVK | VGRGYGYFDY | 4.25 | 2/3 | 2/9 |
| GFTFDDYAMH | GISWNSGSIGYADCVG | MGRGGGYFDY | 4.46 | 1/3 | 1/9 |
| WFTFDDWHMH | GISWNSGSIGYADSVK | VGRGGGYFDY | 4.50 | 1/3 | 1/9 |
| GFTFDDYAMH | GISWNSGSIGYAYSKK | DGRGGGYFDY | 4.65 | 1/3 | 2/9 |
| GFTFDDLAMH | GISWNSGSIGYANSVK | VGRGGGYFDY | 4.76 | 2/3 | 2/9 |
| GFPFDDYAMH | GISWNSGSIGYMDFVK | VGRGGGYFDY | 5.31 | 1/3 | 2/9 |
| GFTFDDYAMH | GISWNSGSVGYADSVK | VGRGGGYYDY | 5.36 | 1/3 | 4/9 |
| GDTFDDYAMH | GISWCSGSIGYADSVK | VGRGGGYFDP | 5.37 | 2/3 | 4/9 |
| GFTFDDYAMS | GISWNSGSIGYADSVK | VGRTGGYFDY | 5.89 | 2/3 | 6/9 |
| GFTFDDYAMW | GISWNSGSIGYAQSVK | VGRGGGYFDY | 7.01 | 1/3 | 5/9 |

Continued, with the values leading:

| mean, log10 nM | seen in | empty controls | CDR-H1 | CDR-H2 | CDR-H3 |
|---|---|---|---|---|---|
| nd | 0/3 | 0/9 | GFTFDFYAMH | GISVNSGSIGYADSVK | VGRGNGYFDY |
| nd | 0/3 | 2/9 | GFTFDDYAMH | GISWNSGMIGYADSVK | VGRMGGYFDY |
| nd | 0/3 | 0/9 | GFTFDDYFME | GISWNSVSIGYADSVK | VGRGGGYFDY |
| nd | 0/3 | 0/9 | GFTFDDYAMH | GISWNTGSIGYAWSVK | WGRGGGYFDY |
| nd | 0/3 | 0/9 | GFTFDDYAMH | GISWNSGSINYADSVK | VGRGGKYFDY |
| nd | 0/3 | 0/9 | GFTFDDYAMH | GISWNSGGIGYADVVK | VGRGGGYFDY |
| nd | 0/3 | 2/9 | GFTFDDYQMH | GIPWPSGSIGYADSVK | VGRGGGYFDY |
| nd | 0/3 | 3/9 | GFTFDDYAMH | QIAWNSGSIGYADSVK | VGRGGGYFDY |
| nd | 0/3 | 3/9 | GFTFDDYAMH | GDSWNSGSIKYADSVK | VGRGGHYFDY |
| nd | 0/3 | 1/9 | GFVFDDYAMH | GISWNSGSIGYADSVK | VGDGGGWFDY |
| nd | 0/3 | 0/9 | GFTFDIAAMH | GISWNSGSIGYADSVK | VNRGGGYFDY |
| nd | 0/3 | 0/9 | GFTFDDMAMN | GISWNSGSIHYADSVK | VGRGGGYFDY |
| nd | 0/3 | 0/9 | GFTFDDYAMH | GIQWSSGSIGYADAVK | VGRGGGYFDY |
| nd | 0/3 | 3/9 | GFTFMDYAMH | GISRNRGSIGYADSVK | VGRGGGYFDY |
| nd | 0/3 | 0/9 | GFKFDDYAMK | GISWNSGSIGYADSGK | VGRGGGYFDY |
| nd | 0/3 | 2/9 | GFTFDDDAMH | GISWNSGSIGMADSRK | VGRGGGYFDY |
| nd | 0/3 | 0/9 | GFTFDDYAMH | GISWISGSIGYADSFK | VGRGGMYFDY |
| nd | 0/3 | 1/9 | GFTFDDYEMH | GIRWNSGSIGYADSVK | VGRGGGYADY |
| nd | 0/3 | 0/9 | GFTFMDYAMH | GISWNSGSLGYADSVK | VGRGGGYHDY |
| nd | 0/3 | 0/9 | GFTFDDYAMH | GISWNIGSIDYADSVK | VGRGGGYFDY |
| nd | 0/3 | 1/9 | GFTFDDYAMH | GGSWNSGSIGYGDFVK | VGRGGGYFDY |
| nd | 0/3 | 0/9 | GFTMDDYAMH | GIRWNSGSIGYADSVK | VGRGGGYFDY |
| nd | 0/3 | 0/9 | GFTFDDYAMH | GISWNSGSPGSAWSVK | VGRGGGYFDY |
| nd | 0/3 | 1/9 | GFTFDDYAMH | GISWNSGSIGYLDSVK | VGMGGNYFDY |
| nd | 0/3 | 0/9 | GFTFDDYAMH | GIGRNSGSIGYADSVK | VGRGGEYFDY |
| nd | 0/3 | 1/9 | PFTFDDYAMH | GISWNSGSIHYADSVK | PGRGGGYFDY |
| nd | 0/3 | 0/9 | GHTFDDYAMH | GPPWNSGSIGYADSVK | VGRGGGYFDY |

A selection of 4 entries from above:

{"CDR-H1": "GFTFDDYAMH", "CDR-H2": "GIRWNSMSIGYADSVK", "CDR-H3": "VGRGGGYFDY", "mean, log10 nM": "4.14", "seen in": "1/3", "empty controls": "2/9"}
{"CDR-H1": "GHTFDDYAMH", "CDR-H2": "GPPWNSGSIGYADSVK", "CDR-H3": "VGRGGGYFDY", "mean, log10 nM": "nd", "seen in": "0/3", "empty controls": "0/9"}
{"CDR-H1": "GFTFDDYQMH", "CDR-H2": "GIPWPSGSIGYADSVK", "CDR-H3": "VGRGGGYFDY", "mean, log10 nM": "nd", "seen in": "0/3", "empty controls": "2/9"}
{"CDR-H1": "GFYYDDYAMH", "CDR-H2": "GISWNSGSIGYADNVK", "CDR-H3": "VGRGGGYFDY", "mean, log10 nM": "2.61", "seen in": "3/3", "empty controls": "2/9"}

For reference, the parent read 1.86 as the reference entry and 0.88 as a member of this library.